# Measured values published in US9375422B2.
# Only a part of the results on these compounds is given; other tests are left out.
# Test: Solubility of fentanyl in softeners
# Conditions: in words
smiles,measurement,value
CCC(=O)N(c1ccccc1)C1CCN(CCc2ccccc2)CC1,solubility of fentanyl in liquid paraffin and polybutene,higher in polybutene than in liquid paraffin
